Data on two compounds can be found in the Kinase Knowledgebase extract (Sharma et al. 2016).

Amino acid sequences for entries named in this document (tags omitted).
UniProt P42336, whole entry, looked up: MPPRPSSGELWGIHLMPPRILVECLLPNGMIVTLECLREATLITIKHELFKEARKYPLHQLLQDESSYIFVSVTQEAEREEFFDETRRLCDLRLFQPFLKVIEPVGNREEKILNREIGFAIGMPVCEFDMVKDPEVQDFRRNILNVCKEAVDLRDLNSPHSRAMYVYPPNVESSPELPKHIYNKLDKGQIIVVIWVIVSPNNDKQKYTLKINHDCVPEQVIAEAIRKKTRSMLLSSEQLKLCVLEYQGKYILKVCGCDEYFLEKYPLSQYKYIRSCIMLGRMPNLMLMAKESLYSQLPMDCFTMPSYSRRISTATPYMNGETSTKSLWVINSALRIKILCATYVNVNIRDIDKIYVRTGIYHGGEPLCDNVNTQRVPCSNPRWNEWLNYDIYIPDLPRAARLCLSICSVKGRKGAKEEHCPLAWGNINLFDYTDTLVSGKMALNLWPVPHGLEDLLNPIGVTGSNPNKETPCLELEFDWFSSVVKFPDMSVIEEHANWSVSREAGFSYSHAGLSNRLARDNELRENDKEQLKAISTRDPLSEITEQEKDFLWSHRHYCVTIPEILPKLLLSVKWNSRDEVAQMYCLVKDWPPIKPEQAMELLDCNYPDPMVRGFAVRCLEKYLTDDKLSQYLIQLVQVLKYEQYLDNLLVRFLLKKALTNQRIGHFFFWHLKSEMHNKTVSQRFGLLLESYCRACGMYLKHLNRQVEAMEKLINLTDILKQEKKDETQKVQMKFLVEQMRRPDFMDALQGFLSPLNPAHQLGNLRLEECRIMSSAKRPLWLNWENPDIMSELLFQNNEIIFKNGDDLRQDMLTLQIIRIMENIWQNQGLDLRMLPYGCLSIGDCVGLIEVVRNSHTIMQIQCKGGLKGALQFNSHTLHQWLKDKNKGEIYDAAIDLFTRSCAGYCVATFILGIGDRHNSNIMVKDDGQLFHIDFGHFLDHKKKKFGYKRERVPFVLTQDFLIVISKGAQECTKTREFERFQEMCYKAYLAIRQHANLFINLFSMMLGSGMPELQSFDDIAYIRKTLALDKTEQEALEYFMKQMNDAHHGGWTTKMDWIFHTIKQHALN

A word on the Ki: it is a dissociation constant, usually derived from enzyme kinetics or from competition with a known ligand.

This assay addresses PIK3CA (human) (UniProt P42336). The assay can be described thus: Assessment of PIK3CA Kinase Activity.

In the case of `COc1ccc(Nc2ncc(Cc3ccc(S(C)(=O)=O)cc3)cc2-c2nc(C)nc(N)n2)cn1`, the inhibition constant (Ki) worked out at 2 nM.

Regarding `COc1ccc(Nc2ncc(-c3ccc(C)nc3)cc2-c2nc(C)nc(N)n2)cn1`, the inhibition constant Ki came out at 8 nM.
